pKd: −log10 of the molar value.
Target: glutathione-S-transferase (GST) (Schistosoma japonicum (Blood fluke)) [GST: P08515]
Test: Kitz-Wilson analysis of the irreversible inactivation of GST: double-reciprocal plot of 1/k_obs (min^-1) against 1/[Inhibitor] (mM^-1), five points with a straight-line fit

pKd: 3.55
Substance: conjugate of formula (6) (glutathione-benzoquinone conjugate) (peptide)
